# pIC50: −log10 of the molar value.
# The chains behind the UniProt entries cited, without tags or fusion partners. Residues count along the entry.
# UniProt P22303, 32-614 limits assumed: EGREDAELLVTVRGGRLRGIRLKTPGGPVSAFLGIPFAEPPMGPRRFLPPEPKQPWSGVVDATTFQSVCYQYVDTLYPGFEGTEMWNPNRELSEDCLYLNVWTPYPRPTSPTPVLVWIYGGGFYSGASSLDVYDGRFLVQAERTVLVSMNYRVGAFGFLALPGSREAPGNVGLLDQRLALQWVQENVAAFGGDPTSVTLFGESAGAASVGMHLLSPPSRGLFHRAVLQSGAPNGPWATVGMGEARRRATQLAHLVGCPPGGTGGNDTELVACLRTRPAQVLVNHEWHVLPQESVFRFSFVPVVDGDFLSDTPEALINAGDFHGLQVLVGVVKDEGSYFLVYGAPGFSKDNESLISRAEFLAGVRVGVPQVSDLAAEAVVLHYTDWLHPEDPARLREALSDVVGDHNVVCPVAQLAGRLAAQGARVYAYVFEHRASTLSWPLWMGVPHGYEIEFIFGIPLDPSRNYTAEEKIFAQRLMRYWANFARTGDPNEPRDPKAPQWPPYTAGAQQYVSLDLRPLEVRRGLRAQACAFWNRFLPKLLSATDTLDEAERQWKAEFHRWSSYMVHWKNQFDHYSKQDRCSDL
# Target: Acetylcholinesterase (Homo sapiens, UniProt P22303)
# Assay: Inhibition of human AChE using acetylthiocholine as substrate preincubated for 30 mins followed by substrate addition measured every 5 mins for 20 mins by Ellman's method
row,Compound,pIC50
1,COc1cc2c(cc1OC)CN(Cc1cc(Br)cc(/C=N/O)c1O)CC2,3.02
2,COc1cc2c(cc1OC)CN(CC1CCN(Cc3cccc(/C=N/O)c3O)CC1)CC2,3.10
3,COc1cc2c(cc1OC)C(c1ccccc1)N(CC1CCN(Cc3cc(F)cc(/C=N/O)c3O)CC1)CC2 (configuration not stated),3.16
4,COc1cc2c(cc1OC)C(c1ccccc1)N(CC1CCN(Cc3ccc(O)c(/C=N/O)c3)CC1)CC2 (configuration not stated),3.63
5,COc1cc2c(cc1OC)CN(CC1CCN(Cc3ccc(O)c(/C=N/O)c3)CC1)CC2,3.41
6,COc1cc(/C=N/O)c(O)c(CN2CCC(CN3CCc4cc(OC)c(OC)cc4C3c3ccccc3)CC2)c1 (configuration not stated),3.26
7,COc1cc2c(cc1OC)CN(Cc1cccc(/C=N/O)c1O)CC2,2.90
8,COc1cc2c(cc1OC)CN(CC1CCN(Cc3cc(F)cc(/C=N/O)c3O)CC1)CC2,3.18
9,COc1cc2c(cc1OC)C(c1ccccc1)N(CC1CCN(Cc3cc(Cl)cc(/C=N/O)c3O)CC1)CC2 (configuration not stated),3.03
10,COc1cc2c(cc1OC)C(c1ccccc1)N(Cc1cc(C)cc(/C=N/O)c1O)CC2 (configuration not stated),2.95
11,COc1cc(/C=N/O)c(O)c(CN2CCC(CN3CCc4cc(OC)c(OC)cc4C3)CC2)c1,3.07
12,COc1cc2c(cc1OC)CN(Cc1cc(C)cc(/C=N/O)c1O)CC2,2.98
13,COc1cc2c(cc1OC)CN(Cc1cc(F)cc(/C=N/O)c1O)CC2,3.16
14,COc1cc(/C=N/O)c(O)c(CN2CCc3cc(OC)c(OC)cc3C2c2ccccc2)c1 (configuration not stated),3.04
15,COc1cc2c(cc1OC)CN(Cc1cc(Cl)cc(/C=N/O)c1O)CC2,2.80
16,COc1cc2c(cc1OC)C(c1ccccc1)N(CC1CCN(Cc3cc(Br)cc(/C=N/O)c3O)CC1)CC2 (configuration not stated),3.01
17,COc1cc2c(cc1OC)CN(Cc1ccc(O)c(/C=N/O)c1)CC2,3.25
18,COc1cc2c(cc1OC)C(c1ccccc1)N(Cc1ccc(O)c(/C=N/O)c1)CC2 (configuration not stated),3.20
19,COc1cc(/C=N/O)c(O)c(CN2CCc3cc(OC)c(OC)cc3C2)c1,2.86
20,COc1cc2c(cc1OC)C(c1ccccc1)N(Cc1cccc(/C=N/O)c1O)CC2 (configuration not stated),3.04
21,COc1cc2c(cc1OC)C(c1ccccc1)N(Cc1cc(Cl)cc(/C=N/O)c1O)CC2 (configuration not stated),2.92
22,COc1cc2c(cc1OC)C(c1ccccc1)N(CC1CCN(Cc3cccc(/C=N/O)c3O)CC1)CC2 (configuration not stated),3.13
23,COc1cc2c(cc1OC)C(c1ccccc1)N(Cc1cc(Br)cc(/C=N/O)c1O)CC2 (configuration not stated),3.05
24,COc1cc2c(cc1OC)CN(CC1CCN(Cc3cc(Cl)cc(/C=N/O)c3O)CC1)CC2,3.20
25,COc1cc2c(cc1OC)C(c1ccccc1)N(CC1CCN(Cc3cc(C)cc(/C=N/O)c3O)CC1)CC2 (configuration not stated),3.28
26,COc1cc2c(cc1OC)CN(CC1CCN(Cc3cc(Br)cc(/C=N/O)c3O)CC1)CC2,3.25
27,COc1cc2c(cc1OC)C(c1ccccc1)N(Cc1cc(F)cc(/C=N/O)c1O)CC2 (configuration not stated),3.12

# Reference: BindingDB's records for 28684009
